Measurements reported in PMC3173241 (The Journal of Experimental Medicine, 2011).

Target: linear ubiquitin oligomer consisting of nine ubiquitins (UniProt P0CG48)
Assay: pull-down

binding result: binds
B1: human ABIN1, GST at the N terminus and His6 at the C terminus (natural protein)
chain: MEGRGPYRIYDPGGSVPSGEASAAFERLVKENSRLKEKMQGIKMLGELLEESQMEATRLRQKAEELVKDNELLPPPSPSLGSFDPLAELTGKDSNVTASPTAPACPSDKPAPVQKPPSSGTSSEFEVVTPEEQNSPESSSHANAMALGPLPREDGNLMLHLQRLETTLSVCAEEPDHGQLFTHLGRMALEFNRLASKVHKNEQRTSILQTLCEQLRKENEALKAKLDKGLEQRDQAAERLREENLELKKLLMSNGNKEGASGRPGSPKMEGTGKKAVAGQQQASVTAGKVPEVVALGAAEKKVKMLEQQRSELLEVNKQWDQHFRSMKQQYEQKITELRQKLADLQKQVTDLEAEREQKQRDFDRKLLLAKSKIEMEETDKEQLTAEAKELRQKVKYLQDQLSPLTRQREYQEKEIQRLNKALEEALSIQTPPSSPPTAFGSPEGAGALLRKQELVTQNELLKQQVKIFEEDFQRERSDRERMNEEKEELKKQVEKLQAQVTLSNAQLKAFKDEEKAREALRQQKRKAKASGERYHVEPHPEHLCGAYPYAYPPMPAMVPHHGFEDWSQIRYPPPPMAMEHPPPLPNSRLFHLPEYTWRLPCGGVRNPNQSSQVMDPPTARPTEPESPKNDREGPQ
